Amino acid sequences for entries named in this document (tags omitted).
UniProt P19156, whole entry, looked up: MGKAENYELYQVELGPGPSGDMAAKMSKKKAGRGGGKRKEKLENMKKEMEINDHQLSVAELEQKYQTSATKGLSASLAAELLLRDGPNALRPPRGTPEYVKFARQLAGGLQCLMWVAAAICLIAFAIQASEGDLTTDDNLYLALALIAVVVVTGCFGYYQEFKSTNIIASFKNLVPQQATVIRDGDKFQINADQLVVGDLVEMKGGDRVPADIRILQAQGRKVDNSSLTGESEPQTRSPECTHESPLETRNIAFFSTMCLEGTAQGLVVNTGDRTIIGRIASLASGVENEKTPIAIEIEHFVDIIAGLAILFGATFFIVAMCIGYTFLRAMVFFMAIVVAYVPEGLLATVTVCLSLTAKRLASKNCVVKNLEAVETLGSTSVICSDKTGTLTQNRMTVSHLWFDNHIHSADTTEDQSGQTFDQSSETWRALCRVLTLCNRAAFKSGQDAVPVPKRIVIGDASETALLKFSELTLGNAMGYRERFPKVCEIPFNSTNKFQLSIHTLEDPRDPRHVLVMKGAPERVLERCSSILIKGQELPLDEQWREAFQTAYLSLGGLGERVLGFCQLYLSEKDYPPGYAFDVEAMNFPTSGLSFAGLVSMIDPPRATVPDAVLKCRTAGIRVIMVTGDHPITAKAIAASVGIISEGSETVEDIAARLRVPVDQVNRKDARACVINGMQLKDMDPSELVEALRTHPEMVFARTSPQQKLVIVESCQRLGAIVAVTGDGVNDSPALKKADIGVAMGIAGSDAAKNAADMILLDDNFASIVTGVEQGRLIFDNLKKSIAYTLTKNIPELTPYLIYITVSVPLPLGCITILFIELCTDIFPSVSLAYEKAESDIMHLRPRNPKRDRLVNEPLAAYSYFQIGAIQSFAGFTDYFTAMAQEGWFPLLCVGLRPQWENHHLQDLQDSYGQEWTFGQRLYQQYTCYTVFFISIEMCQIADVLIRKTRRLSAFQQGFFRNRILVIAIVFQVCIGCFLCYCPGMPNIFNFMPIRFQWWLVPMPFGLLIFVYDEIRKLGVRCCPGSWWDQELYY

In US7662832B2, “Pyrrolo[2,3-c]pyridine derivatives and processes for the preparation thereof” (priority 2004, dated 2010):

Target: Proton Pump (H^+/K^+-ATPase) (Sus scrofa, UniProt P19156)
Experiment: Inhibitory effects on proton pump (H^+/K^+-ATPase) activity
Assay type: biochemical
Conditions: hog gastric vesicles; K^+ stimulated H^+/K^+-ATPase activity; 30 minutes at 37° C.

Cc1c(C)n(CCC(C)Cl)c2c(N(C)Cc3ccc(F)cc3)nccc12 (stereo not shown)
IC50: 110 nM
